# Test results published in patent US20220387618A1, “METHODS OF TREATING HER2 POSITIVE BREAST CANCER WITH TUCATINIB IN COMBINATION WITH AN ANTI-HER2 ANTIBODY-DRUG CONJUGATE” (Seagen Inc., priority 2019, published 2022).
# “Also recorded” adds a separate entry of the source.
# Tested on: BT-474 breast cancer cells
# Assay: Intracellular drug measurement of the T-DM1 adduct Lys-MCC-DM1 by mass spectrometry
# Type: cell-based
# Conditions: BT-474 cell lysates
# Experimental: To directly measure the rates of ADC catabolism, cell lysates were analyzed by mass spectrometry for the T-DM1 adduct, Lys-MCC-DM1. FIGS. 11A, 11B, and 11C show a schematic of intracellular drug measurement studies, the structure of the primary T-DM1 catabolite, Lys-MCC-DM1, and the concentration of Lysine-MCC-DM1 over timepoints.
# The cell lysates (e.g., BT-474) were analyzed by mass spectrometry for the T-DM1 adduct, Lys-MCC-DM1.
# BT-474 breast cancer cells were treated with T-DM1 (3 ug/ml), in either the presence or absence of tucatinib (100 nM). Both supernatant and cells were harvested at timepoints spanning 72 hours for each treatment condition. Samples were analyzed by mass spectrometry to determine the concentration of T-DM1 adducts.
substance,measurement,value
"ado-trastuzumab emtansine [T-DM1, reference compound]",catabolism of T-DM1 in cells,majority of T-DM1 is proteolyzed into Lys-MCC-DM1 adduct; also recorded: predominantly proteolyzed into the Lys-MCC-DM1 adduct
